Earlier results, collected in patent US20240108592A1, “COMBINATION THERAPY WITH IMMUNOTHERAPEUTIC AGENT FOR CANCER” (Gongwin Biopharm Co., Ltd, priority 2022, published 2024).

The chains behind the UniProt entries cited, without tags or fusion partners. Where a name states a change or a piece, a line headed by the entry shows the natural chain unless it says otherwise. Residues count along the entry.
UniProt P43166: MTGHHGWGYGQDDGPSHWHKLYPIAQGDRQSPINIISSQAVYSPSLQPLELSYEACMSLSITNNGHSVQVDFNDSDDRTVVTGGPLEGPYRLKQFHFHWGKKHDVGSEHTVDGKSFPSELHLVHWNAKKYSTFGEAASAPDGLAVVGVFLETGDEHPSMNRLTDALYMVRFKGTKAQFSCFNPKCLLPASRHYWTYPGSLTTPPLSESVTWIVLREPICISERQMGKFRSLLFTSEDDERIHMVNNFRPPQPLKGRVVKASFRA
UniProt O43570, 25-354: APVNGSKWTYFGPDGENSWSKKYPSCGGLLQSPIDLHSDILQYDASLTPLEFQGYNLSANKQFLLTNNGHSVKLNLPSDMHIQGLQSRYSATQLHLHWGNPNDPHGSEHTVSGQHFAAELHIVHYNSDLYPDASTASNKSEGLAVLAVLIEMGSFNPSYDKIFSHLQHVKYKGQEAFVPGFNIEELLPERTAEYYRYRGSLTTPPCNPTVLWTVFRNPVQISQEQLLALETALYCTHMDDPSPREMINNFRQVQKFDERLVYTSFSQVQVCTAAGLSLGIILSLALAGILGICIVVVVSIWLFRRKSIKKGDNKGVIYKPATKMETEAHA

Legend:
Details in all cases: background statement, no data
CA7 = CA7 (Homo sapiens, UniProt P43166)
CA12 = CA12 (Homo sapiens, UniProt O43570)
CA9 = CA9 (Homo sapiens, UniProt Q16790)

Cc1ccc(S(N)(=O)=O)cc1 [PTS, para-toluene sulfonamide]
strong inhibitory effect: inhibitory effect on CA7 (CA7) | inhibitory effect on CA12 (CA12) | inhibitory effect on CA9 (CA9)
